# Biological target: human μ-opiate receptor (Homo sapiens, UniProt P35372)
# Sequences of proteins named here, by UniProt entry; tags and fusion partners are left off. A change or cut given only in a name is not applied to a line headed by its entry.
# UniProt P35372, whole entry, looked up: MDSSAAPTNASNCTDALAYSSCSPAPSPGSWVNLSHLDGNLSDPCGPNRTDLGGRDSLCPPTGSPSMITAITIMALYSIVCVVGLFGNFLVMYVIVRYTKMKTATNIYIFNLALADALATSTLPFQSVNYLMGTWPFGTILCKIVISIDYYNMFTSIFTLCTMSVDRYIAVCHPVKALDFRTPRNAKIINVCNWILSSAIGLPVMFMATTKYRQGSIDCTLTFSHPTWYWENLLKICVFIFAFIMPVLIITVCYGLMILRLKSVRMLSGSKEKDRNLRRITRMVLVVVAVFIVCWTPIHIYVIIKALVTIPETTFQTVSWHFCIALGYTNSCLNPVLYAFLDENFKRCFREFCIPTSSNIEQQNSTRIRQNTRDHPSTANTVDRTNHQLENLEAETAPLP
# UniProt P41146: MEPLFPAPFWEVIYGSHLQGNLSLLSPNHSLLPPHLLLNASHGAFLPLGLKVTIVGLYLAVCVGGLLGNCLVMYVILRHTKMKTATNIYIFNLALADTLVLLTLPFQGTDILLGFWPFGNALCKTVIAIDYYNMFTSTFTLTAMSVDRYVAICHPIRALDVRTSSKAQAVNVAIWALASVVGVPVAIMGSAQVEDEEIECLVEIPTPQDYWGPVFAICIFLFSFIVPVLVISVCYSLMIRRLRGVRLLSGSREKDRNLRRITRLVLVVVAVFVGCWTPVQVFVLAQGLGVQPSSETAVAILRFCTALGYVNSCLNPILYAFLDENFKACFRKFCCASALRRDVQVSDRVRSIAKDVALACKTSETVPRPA
# Test: Measurement of μ-binding ([3H]-naloxone displacement, CHO-K1 membrane preparation)
# Settings: 1 μM test substance; displacement of [3H]-naloxone
row,Molecule,"μ-binding [1 μM], % inhibition"
1,CNC1(NC)C(CC(=O)NC2CCC(Cc3ccc(Cl)cc3)(N(C)C)CC2)CC1C(C)=O (centres unmarked),55%
2,O=C(CCCC(=O)c1ccccc1)NC1CCC(c2ccccc2)(N2CCCCC2)CC1 (centres unmarked),59%
3,O=C(CCC(=O)c1ccc(F)cc1)NC1CCC(c2ccccc2)(N2CCCCC2)CC1 (centres unmarked),68%
4,CN(C)C1(Cc2ccccc2)CCC(NC(=O)CCC(=O)c2ccc(Cl)cc2)CC1 (centres unmarked),50%
5,CN(C)C1(c2cccs2)CCC(NC(=O)CCC(=O)c2ccc(F)cc2)CC1 (centres unmarked),100%
6,CNC1(NC)C(CC(=O)NC2CCC(Cc3ccccc3F)(N(C)C)CC2)CC1C(C)=O (centres unmarked),79%
7,CN(C)C1(Cc2cccc(F)c2)CCC(NC(=O)CCC(=O)c2ccc(F)cc2)CC1 (centres unmarked),42%
8,CN(C)C1(Cc2ccc(F)cc2)CCC(NC(=O)CCC(=O)c2ccccc2)CC1 (centres unmarked),54%
9,Cc1ccc(CC2(N(C)C)CCC(NC(=O)CCC(=O)c3ccc(Cl)cc3)CC2)cc1 (centres unmarked),42%
10,Cc1ccc(CC2(N(C)C)CCC(NC(=O)CCC(=O)c3ccccc3)CC2)cc1 (centres unmarked),50%
11,CC(C(=O)NC1CCC(Cc2ccccc2)(N(C)C)CC1)c1cccc(C(=O)c2ccccc2)c1 (centres unmarked),80%
12,Cc1cccc(CC2(N(C)C)CCC(NC(=O)C(C)c3cccc(C(=O)c4ccccc4)c3)CC2)c1 (centres unmarked),79%
13,Cc1ccccc1CC1(N(C)C)CCC(NC(=O)CCC(=O)c2ccccc2)CC1 (centres unmarked),61%
14,CN(C)C1(Cc2ccccc2Cl)CCC(NC(=O)CCC(=O)c2ccccc2)CC1 (centres unmarked),60%
15,CN(C)C1(Cc2ccccc2F)CCC(NC(=O)CCC(=O)c2ccc(F)cc2)CC1 (centres unmarked),62%
16,5-oxo-5-phenyl-valericacid 4-dimethylamino-4-phenyl-cyclohexyl)-amide,100%
17,CC(C(=O)NC1CCC(Cc2ccccc2F)(N(C)C)CC1)c1cccc(C(=O)c2ccccc2)c1 (centres unmarked),84%
18,CN(C)C1(CCc2ccccc2)CCC(NC(=O)CCC(=O)c2ccccc2)CC1 (centres unmarked),61%
19,2-(3-benzofuryl-phenyl)-N-(4-dimethylamino-4-phenethyl-cyclohexyl)-propionamide,91%
20,CC(=O)C1CC(CC(=O)NC2CCC(Cc3cccc(Cl)c3)(N(C)C)CC2)C1(C)C (centres unmarked),55%
21,Cc1ccc(CC2(N(C)C)CCC(NC(=O)C(C)c3cccc(C(=O)c4ccccc4)c3)CC2)cc1 (centres unmarked),62%
22,Cc1ccc(CC2(N(C)C)CCC(NC(=O)CCCC(=O)c3ccccc3)CC2)cc1 (centres unmarked),56%

row,Molecule,"μ-binding [1 μM], % inhibition"
1,4-(4-chloro-phenyl)-N-[4-dimethylamino-4-(2-methyl-benzyl)-cyclohexyl-4-oxobutyramide,53%
2,Cc1cccc(CC2(N(C)C)CCC(NC(=O)CCC(=O)c3ccccc3)CC2)c1 (centres unmarked),60%
3,4-oxo-4-phenyl-(4-phenyl-4-piperidin-1-yl-cyclohexyl)-butyramide,71%
4,4-(4-chloro-phenyl)-4-dimethylamino-4-(3-fluoro-benzyl)-cyclohexyl]-4-oxo-butyramide,42%
5,CN(C)C1(CCc2ccccc2)CCC(NC(=O)CCCC(=O)c2ccccc2)CC1 (centres unmarked),88%
6,Cc1ccccc1CC1(N(C)C)CCC(NC(=O)C(C)c2cccc(C(=O)c3ccccc3)c2)CC1 (centres unmarked),78%
7,CN(C)C1(CCc2ccccc2)CCC(NC(=O)C(=O)c2c[nH]c3ccccc23)CC1 (centres unmarked),55%
8,CN(C)C1(Cc2ccccc2)CCC(NC(=O)CCC(=O)c2ccc(F)cc2)CC1 (centres unmarked),58%
9,CC(C(=O)NC1CCC(Cc2cccc(Cl)c2)(N(C)C)CC1)c1cccc(C(=O)c2ccccc2)c1 (centres unmarked),68%
10,CN(C)C1(c2cccc(F)c2)CCC(NC(=O)C(=O)c2c[nH]c3ccccc23)CC1 (centres unmarked),79%
11,CN(C)C1(Cc2cccc(Cl)c2)CCC(NC(=O)CCC(=O)c2ccc(F)cc2)CC1 (centres unmarked),54%
12,CNC1(NC)C(CC(=O)NC2CCC(Cc3ccccc3)(N(C)C)CC2)CC1C(C)=O (centres unmarked),41%
13,CN(C)C1(Cc2ccc(Cl)cc2)CCC(NC(=O)CCCC(=O)c2ccccc2)CC1 (centres unmarked),48%
14,CC(=O)C1CC(CC(=O)NC2CCC(Cc3ccc(C)cc3)(N(C)C)CC2)C1(C)C (centres unmarked),58%
15,CNC1(NC)C(CC(=O)NC2CCC(Cc3ccccc3)(N3CCCCC3)CC2)CC1C(C)=O (centres unmarked),54%
16,O=C(CCCC(=O)c1ccccc1)NC1CCC(c2ccccc2)(N2CCOCC2)CC1 (centres unmarked),41%
17,4-(4-chloro-phenyl)-4-dimethylamino-4-(4-fluoro-benzyl)-cyclohexyl]-4-oxo-butyramide,55%
18,CNC1(NC)C(CC(=O)NC2CCC(Cc3cccc(C)c3)(N(C)C)CC2)CC1C(C)=O (centres unmarked),68%
19,CN(C)C1(Cc2cccc(Cl)c2)CCC(NC(=O)CCCC(=O)c2ccccc2)CC1 (centres unmarked),65%
20,CN(C)C1(Cc2ccccc2F)CCC(NC(=O)CCCC(=O)c2ccccc2)CC1 (centres unmarked),80%
21,CN(C)C1(Cc2ccccc2Cl)CCC(NC(=O)CCC(=O)c2ccc(Cl)cc2)CC1 (centres unmarked),72%
22,CN(C)C1(Cc2ccccc2F)CCC(NC(=O)C(=O)c2c[nH]c3ccccc23)CC1 (centres unmarked),57%

# Biological target: ORL1 receptor (Homo sapiens, UniProt P41146)
# Test: Measurement of ORL1 binding (3H-nociceptin/orphanin FQ, membranes of recombinant CHO-ORL1 cells)
# Settings: 1 μM test substance; 0.5 nM 3H-nociceptin/orphanin FQ
row,Molecule,"ORL 1-binding [1 μM], % inhibition"
1,CN(C)C1(c2cccs2)CCC(NC(=O)CCC(=O)c2ccc(F)cc2)CC1 (centres unmarked),91%
2,5-oxo-5-phenyl-valericacid 4-dimethylamino-4-phenyl-cyclohexyl)-amide,100%
3,CN(C)C1(c2cccc(F)c2)CCC(NC(=O)C(=O)c2c[nH]c3ccccc23)CC1 (centres unmarked),78%

# From patent US7476763B2, “Oxo-substituted cyclohexyl-1,4-diamine compounds” (dated 2009)
